The record followed here is patent US5571822A, “Antitumor compounds” (The University of North Carolina at Chapel Hill, priority 1994, dated 1996).

Each structure is given as a SMILES string.

For assay [1], the system named is approximately 60 different cell lines. Kind of assay: NCI in vitro disease-oriented human tumor cell screen, all cell lines. It is filed as cell-based. To be noted: read-out: average logGI50 (converted). An excerpt:
The cell lines tested included cells derived from the following solid tumor types: leukemia, non-small cell lung, colon, the central nervous system (CNS), melanoma, ovarian, renal, prostate, and breast cancers.

A further assay concerns NCI-H226. Kind of assay: NCI in vitro tumor cell screen, NCI-H226 non-small cell lung cancer. To be noted: Homo sapiens, NCI-H226, read-out: logGI50 (converted). It counts as cell-based. As for the experimental part: Selected 2-phenyl-4-quinolones were assayed using an in vitro, disease-oriented antitumor screen run by the National Cancer Institute (NCI) (e.g., Boyd 1989). The screen involved approximately 60 different cell lines and is a useful indicator of in vivo antitumor activity for a broad variety of tumor types (Grever et al., 1992; Monks et al., 1991). The cell lines tested included cells derived from the following solid tumor types: leukemia, non-small cell lung, colon, the central nervous system (CNS), melanoma, ovarian, renal, prostate, and breast cancers.

On to `CC(=O)Nc1ccc2[nH]c(-c3cccc(F)c3)cc(=O)c2c1` [compound 25, 3'-Fluoro-6-acetamido-2-phenyl-4-quinolone], for which the GI50 in assay [1] was 15.1 µM; in the assay on NCI-H226, 23.4 µM.
